# Target: c-Myc, P01106
# Assay: cell-based or functional assay
binder,measurement,value
GRKKRRQRRRPPQNELKRAFAALRDQI (modifications not checked) [Tat-H1 (TAT cell targeting peptide fused to H1)],decrease in Myc reporter activity at 1 mM,< 75%
